The entries are a selection whose mix differs from that of the whole data set. Inconclusive results are not listed. Calls of active or inactive are those of the source. The call rests on the fitted dose curve; in most records, active means well fitted curve in either direction with a large enough effect; inconclusive means small, poorly fitted or top-dose-only effect, or another doubt; inactive means flat fitted curve, though single readings scatter.
These compounds were tested on Hsp90 C-terminal peptide / TPR2A (Hop) interaction, human (assay: qHTS Assay for Disrupters of an Hsp90 Co-Chaperone Interaction). Settings: AlphaScreen TPR2A-His6 binding biotin-Hsp90 C-terminal peptide; at 57 µM (top of the series) unless noted.
From the text: NIH Chemical Genomics Center [NCGC]
NIH Molecular Libraries Screening Centers Network [MLSCN]
Hsp90 (heat shock protein 90) is the essential molecular chaperone and it accounts for 1-2% of all cytosolic proteins and is critical for the activity of diverse cellular proteins that are involved in a variety of cellular processes, including development, cell cycle, and steroid hormone signaling. Its client proteins include signaling kinases such as IGF1R, Akt, v-Src, Raf-1; regulators of cell survival such as Bcr-Abl; and transcription factors such as mutated p53, estrogen and progesterone receptors. Hsp90 has emerged as an important target for cancer treatment due to its essential role in maintaining transformation and regulating the function of oncogenic signaling proteins.
The in vivo function of Hsp90 is regulated by the binding and hydrolysis of ATP at its N-terminal. Geldanamycin binds to ATP site and inhibit Hsp90 function. Geldanamycin and its analogues are under clinical trials in cancer patients.
This domain contains the binding site for tetratricopeptide repeat (TPR) domains on HOP (Hsp Organizing Protein). TPR is a structural motif used by a significant number of cochaperones by which the in vivo function of Hsp90 is regulated. TPR2A on HOP binds specifically to MEEVD motif of the C-terminal of Hsp90.
A homogeneous AlphaScreen is developed to assess the interaction between TPR2A and MEEVD motif of the C-terminal of Hsp90 by using the isolated TPR2A domain and a synthesized 20mer Hsp90 C terminal peptide. AlphaScreen is two bead-based proximity-dependent chemical energy transfer luminescent assay platform. TPR2A-His-6 and biotinylated Hsp90 C terminal peptide will bring streptavidin donor beads and nickel chelate acceptor beads to a proximity range (less than 200 nm), and subsequently lead a chemical luminescent reaction upon exciting donor beads with 680 nm laser. Inhibition of TPR2A and MEEVD motif interaction by small molecules could attenuate or abolish this chemical luminescent reaction.
Counter screening: Biotinylated-His-6 (PerkinElmer) can be utilized as a counter screen, as it serves as a linker to bring streptavidin beads and nickel chelate beads together. The counter screen can exclude alpha screen platform false positives due to small molecules being metal chelators, biotin analogues and imidazole analogues, or due to interfering with oxygen release from donor beads. Such an assay should be utilized to qualify any activity observed in this screen.
NCGC Assay Protocol Summary:
The assay was performed on 1536-well white plate (untreated solid bottom). Liquids were dispensed by 1536-well plate washer (Kalypsys, San Diego, CA). Plates were read on EnVision (PerkinElmer, Boston, MA).TPR2A-His6 was produced using a bacteria expression system and purified using a well developed method (Ghosh et al., 2000). Hsp90 C terminal 20-mer peptide with or without an N-terminal biotin group are synthesized using automated solid phase synthesis by the Yale Keck facility. The composition of assay buffer was (in mM) 25 HEPES, 100 KCl, 2 MgCl2 and 2 DTT; 0.1% BSA and 0.01% Tween-20. TPR2A-His6 binding to biotin-Hsp90 will bring streptavidin donor beads and nickel chelate acceptor beads (PerkinElmer) together and can be measured by Alpha reading by EnVision (PerkinElmer). Free Hsp90 blocks biotin-Hsp90 binding to TPR2 and serves as a positive control in the current asssay.
The assay was performed at room temperature. All compounds were screened as titrations from […] to 46 uM final concentration. The assay was performed in 1536-well format plates (untreated white solid bottom, Corning Inc.) as follows:
Sequence,Parameter,Value,Description
1,Reagent,3 uL TPR2A-His6,Final concentration was 5nM
2,Compound,23 nL,Final titration was from 0.7 nM to 46 uM
3,Time,15 minutes,Room temperature
4,Reagent,1 uL biotin-Hsp90,With and without free Hsp90. Final concentration was 10 nM for biotin-Hsp90 and 10uM for free Hsp90.
5,Time,1 hour,Room temperature
[…]
In the case of N/C(=N\O)c1c(N)no[n+]1[O-], the activity change, negative = inhibition is reported as inactive: -0.814%. In the case of ClCCOP(OCCCl)OCCCl, the activity change, negative = inhibition is reported as inactive: -1.21%. With Fc1ccccc1NC1CCN(Cc2ccccc2)CC1 the activity change, negative = inhibition was inactive: -1.23%. CCC(CO)(C(=O)OC1CN2CCC1CC2)c1ccccc1 (stereo not given) was tested, and the activity change, negative = inhibition was inactive: -4.01%. In the case of O=C(O)C1(Nc2ccccc2)CCN(Cc2ccccc2)CC1, the activity change, negative = inhibition is reported as inactive: -3.98% [at 11 µM]. In the case of CCOc1ncccc1C(=O)NCC1(N2CCOCC2)CCCCC1, the activity change, negative = inhibition is reported as inactive: -0.805%. In the case of O=C(OC1CN2CCC1CC2)C1c2ccccc2Oc2ccccc21 (stereo not given), the activity change, negative = inhibition is reported as inactive: 1.74%. N#CC1(Nc2ccccc2)CCN(CCc2ccccc2)CC1 was tested, and the activity change, negative = inhibition was inactive: 2.79%. In the case of NC1CCCCC1.NP(=O)(O)N(CCCl)CCCl, the activity change, negative = inhibition is reported as inactive: -0.842% [at 11 µM]. CCOP(=O)(Cl)Cl was tested, and the activity change, negative = inhibition was inactive: -2.59%.

Source: PubChem BioAssay AID595 (National Center for Advancing Translational Sciences (NCATS), 2007)
On the % scale 0 is the no-effect control and ±100 the full control effect.
